From PubChem BioAssay AID2732 (Emory University Molecular Libraries Screening Center, 2010)
Only a part is listed here, and it is no random draw. Active and inactive are the calls of the source.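 How the source made its calls: active means compounds that reduced the stress-induced luciferase reporter signal by more than about 70% of percent inhibition (limit read from the data); inactive means the rest.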

test: inhibitors of CHOP promoter induction, primary screen, cell-based, unfolded protein response, luciferase reporter (AID 2732); details: CHO-K1 CHOP-promoter luciferase, tunicamycin-induced, 15-18 h; at 10 µM; stronger effect = higher value;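 further: 0% = tunicamycin plus vehicle and 100% = wells without tunicamycin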

SMILES	inhibition
CP(=O)(Oc1ccccc1)OC(c1ccccc1)C(F)(F)F (stereo not given)	inactive: 0.71%
CP(=O)(NC(=O)Nc1ccccc1)Oc1ccccc1 (stereo not given)	inactive: -8.03%
CCc1ccc(OP(C)(=O)N2CCN(c3ccc([N+](=O)[O-])cc3)CC2)cc1 (stereo not given)	inactive: 9.94%
Cc1cc(C)cc(OP(C)(=O)Nc2ccc(SC(F)(F)F)cc2)c1 (stereo not given)	active: 70.3%
Cc1nc2ccc3ccccc3c2s1.O=[N+]([O-])c1cc([N+](=O)[O-])c(O)c([N+](=O)[O-])c1	inactive: 46.5%
O=[N+]([O-])c1cc([N+](=O)[O-])c(-n2nnc3ccccc32)c([N+](=O)[O-])c1	inactive: 29.1%
CN1CCCCC1COC(=O)C1(O)c2ccccc2CCc2ccccc21 (stereo not given)	inactive: 15%
COc1ccccc1OP(C)(=O)Nc1c(C)cccc1C (stereo not given)	inactive: 8.48%
CCCOc1ccc(NP(C)(=O)Oc2ccc(Cl)cc2)cc1 (stereo not given)	inactive: -2.26%
CP(=O)(Nc1ccc(SC(F)(F)F)cc1)Oc1ccccc1 (stereo not given)	inactive: 40.2%
O=[N+]([O-])c1cc([N+](=O)[O-])c(Nc2nnnn2CCO)c([N+](=O)[O-])c1	inactive: -14.6%
CCOC(=O)C(CC)C1=NC(C)(C)Cc2ccccc21.O=[N+]([O-])c1cc([N+](=O)[O-])c(O)c([N+](=O)[O-])c1 (stereo not given)	inactive: 4.02%
CC1=NCCc2c1[nH]c1ccccc21.O=[N+]([O-])c1cc([N+](=O)[O-])c(O)c([N+](=O)[O-])c1	inactive: 12%
O=C(O)c1cccc(Nc2c([N+](=O)[O-])cc([N+](=O)[O-])cc2[N+](=O)[O-])c1	inactive: -23.2%
Cc1cc(C)cc(OP(C)(=O)Nc2ccccn2)c1 (stereo not given)	inactive: 28.1%
CP(=O)(Nc1cccc(Br)c1)Oc1ccccc1 (stereo not given)	inactive: 4.85%
Cc1ccc(C)c(NP(C)(=O)Oc2ccccc2)c1 (stereo not given)	inactive: 3.23%
COc1ccccc1OP(C)(=O)Nc1cccc(Br)c1 (stereo not given)	inactive: 39.1%
Cc1cc(C)cc(OP(C)(=O)Nc2ccc(C)cc2C)c1 (stereo not given)	inactive: 10.3%
CCOC(=O)c1ccc(NP(C)(=O)Oc2cc(C)cc(C)c2)cc1 (stereo not given)	inactive: 44.3%
